{
  "source": "patent US9718869B2",
  "about": "“Peptide-based compounds and uses thereof to treat beta-amyloid accumulation” (MANUS PHARMACEUTICALS (CANADA) LTD., priority 2012, dated 2017)",
  "system": "sham-operated mice",
  "test": "Morris water maze spatial memory test, sham-operated mice immunized with (FR-3-NP-1)2-Lys-OH / (R-2-FR-3-NP-1)2-Lys-OH in IFA (Example 3)",
  "details": "four immunizations with IFA",
  "data": [
    {"substance": "Ser-Glu-Arg-Phe-Tyr-Glu-Cys-Cys-Lys-Glu-Lys(Ser-Glu-Arg-Phe-Tyr-Glu-Cys-Cys-Lys-Glu)-OH [(FR-3-NP-1)2-Lys-OH]", "values": [
      {"measurement": "Effect of immunization on spatial memory of SO mice (in words)", "result": "did not have a negative impact on their spatial memory"}
    ]}
  ]
}
